This is an account of results in ChEMBL document CHEMBL3425491, “Development of novel ACK1/TNK2 inhibitors using a fragment-based approach” (J Med Chem, 2015).

By UniProt entry, the sequences of proteins in these tests, tags left out. Where a name states a change or a piece, a line headed by the entry shows the natural chain unless it says otherwise.
UniProt Q07912: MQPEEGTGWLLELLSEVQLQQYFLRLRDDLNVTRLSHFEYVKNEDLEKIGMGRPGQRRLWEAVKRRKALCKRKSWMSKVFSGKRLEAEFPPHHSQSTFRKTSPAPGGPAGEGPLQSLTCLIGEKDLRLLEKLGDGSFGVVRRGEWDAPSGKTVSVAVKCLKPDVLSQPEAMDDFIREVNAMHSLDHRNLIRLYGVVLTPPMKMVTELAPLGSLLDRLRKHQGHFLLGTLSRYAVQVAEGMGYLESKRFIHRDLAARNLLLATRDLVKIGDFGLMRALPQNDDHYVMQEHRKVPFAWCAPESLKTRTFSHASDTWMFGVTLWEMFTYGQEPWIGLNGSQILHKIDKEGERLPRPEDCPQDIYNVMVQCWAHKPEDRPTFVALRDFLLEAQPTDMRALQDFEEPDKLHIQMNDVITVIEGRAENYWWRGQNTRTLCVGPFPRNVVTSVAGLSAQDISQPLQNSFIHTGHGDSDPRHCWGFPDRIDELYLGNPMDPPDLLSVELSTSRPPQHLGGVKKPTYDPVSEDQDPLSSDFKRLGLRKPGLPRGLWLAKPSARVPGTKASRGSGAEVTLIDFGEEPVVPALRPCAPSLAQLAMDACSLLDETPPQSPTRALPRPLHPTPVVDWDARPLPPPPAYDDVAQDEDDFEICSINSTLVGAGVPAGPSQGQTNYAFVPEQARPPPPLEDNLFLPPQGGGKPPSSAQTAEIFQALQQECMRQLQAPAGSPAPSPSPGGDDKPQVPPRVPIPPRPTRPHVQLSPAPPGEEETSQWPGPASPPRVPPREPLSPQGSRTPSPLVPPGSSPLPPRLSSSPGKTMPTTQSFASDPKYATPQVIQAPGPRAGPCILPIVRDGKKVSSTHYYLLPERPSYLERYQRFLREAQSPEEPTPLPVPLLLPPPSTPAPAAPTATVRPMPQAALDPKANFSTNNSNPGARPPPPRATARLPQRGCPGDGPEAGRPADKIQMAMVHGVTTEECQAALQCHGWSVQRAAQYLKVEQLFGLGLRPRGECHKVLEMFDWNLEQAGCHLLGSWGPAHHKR

Each structure is given as a SMILES string.

The assay concerns the target Activated CDC42 kinase 1 (Homo sapiens, UniProt Q07912). Nature of the assay: Inhibition of human ACK1 kinase activity using biotinylated ATGRYYAMKIL - AKT peptide substrate assessed as phosphorylation at 10 uM by ELISA. Type of assay: single protein.
As for `Brc1cnc(Nc2ccc(N3CCNCC3)cc2)nc1NCC1CCCO1` (racemic), the inhibition turned out to be 85.5%.

As to `Cc1cc(Nc2ncc(Br)c(NCC3CCCO3)n2)ccc1O` (stereo not drawn), the inhibition is 75.5%.

In the case of `Oc1ccc(Nc2ncc(Br)c(NCC3CCCO3)n2)cc1` (stereo not drawn), the inhibition came out at 83%.
